# Measurements as given in patent publication US5935591A, “Method for treatment of equine protozoal myeloencephalitis with thiazolides” (Romark Laboratories, L.C., priority 1998, dated 1999).
# Details: HPLC; horses; oral administration of pharmaceutical formulations of nitazoxanide
structure (smiles),measurement,value
"CC(=O)Oc1ccccc1C(=O)Nc1ncc([N+](=O)[O-])s1 [nitazoxanide, 2-(acetolyloxy)-N-(5-nitro 2-thiazoly) benzamide]",active metabolite of nitazoxanide in blood and cerebral spinal fluid,present in both the blood and the cerebral spinal fluid
